One assay deals with PC-3. Kind of assay: Antiproliferative activity against human PC3 cells treated for 24 hrs measured after 72 hrs by MTT assay.
A further assay concerns HL-60. In words: Antiproliferative activity against human HL60 cells treated for 24 hrs measured after 72 hrs by MTT assay. On the technique in general: Tetrazolium assays rely on reduction of a dye to a coloured formazan, in cell work by metabolically active cells.
Another assay concerns THP-1. In words: Antiproliferative activity against human THP1 cells treated for 24 hrs measured after 72 hrs by MTT assay.
A further assay deals with HepG2. Kind of assay: Antiproliferative activity against human HepG2 cells treated for 24 hrs measured after 72 hrs by MTT assay.

As a reminder, the IC50 is the point on the concentration scale where inhibition reaches its midpoint. Read a high IC50 as weaker potency in that assay. For `O=C(O)c1ccc(N(CCCl)CCCl)cc1`, the IC50 in the assay on PC-3 was 63.5 µM; with HL-60, 12.3 µM; in the assay with THP-1, 8.56 µM; in the assay with HepG2, more than 100 µM.

The values are drawn from ChEMBL document CHEMBL4043279 (Bioorg Med Chem Lett, 2017).
